The entries are a selection whose mix differs from that of the whole data set. The source made the active and inactive calls. No stated cut-off is given here; in the data, active means inhibition above about 17%; inactive means the rest.

Protein sequences, listed by entry. Tags and fused reporters are not part of them.
UniProt P49146, whole entry, looked up: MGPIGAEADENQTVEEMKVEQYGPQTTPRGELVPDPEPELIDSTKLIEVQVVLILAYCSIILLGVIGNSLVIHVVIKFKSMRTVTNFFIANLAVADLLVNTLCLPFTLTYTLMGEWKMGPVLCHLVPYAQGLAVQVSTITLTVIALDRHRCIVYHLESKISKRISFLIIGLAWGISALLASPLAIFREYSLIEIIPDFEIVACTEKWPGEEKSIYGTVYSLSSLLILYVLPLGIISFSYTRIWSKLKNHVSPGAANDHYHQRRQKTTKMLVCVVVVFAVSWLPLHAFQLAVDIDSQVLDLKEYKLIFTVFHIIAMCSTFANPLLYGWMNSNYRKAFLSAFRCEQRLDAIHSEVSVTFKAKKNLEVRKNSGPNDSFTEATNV

The target of this assay is Neuropeptide Y receptor type 2 (Homo sapiens) (UniProt P49146). In words: blockers of human neuropeptide Y Y2 receptor – cell-based, primary screen (AID 793).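 Further: 0% = vehicle with agonist challenge and 100% = reference antagonist with challenge.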 The following applies: NPY-Y2 expressing cells, antagonist mode; at 2.7 µM; active compounds read high.
In the case of `O=P1(Nc2nc3ccc(Cl)cc3s2)COc2ccccc2O1` (centres undefined), the inhibition is inactive: 2.41%.
Regarding `CCOC(=O)NC(Sc1ccccc1)C(Cl)(Cl)Cl` (centres undefined), the inhibition is inactive: 1.43%.
In the case of `COC(=O)c1cc2c(s1)N=C(c1ccccc1)N(C)P2(=O)N1CCOCC1` (centres undefined) it was inactive: 1.04%.
On to `CC(=O)NC(SC(=S)N(CC(C)C)CC(C)C)C(Cl)(Cl)Cl` (centres undefined), for which the inhibition was inactive: 9.55%.
On to `CCC(=O)N1C2C3N(C(=O)CC)C1C1N(C(=O)CC)C(C(N1C(=O)CC)N3C(=O)CC)N2C(=O)CC`, for which the inhibition is inactive: 5.21%.
Take `C(Cc1nn[nH]n1)Cc1nn[nH]n1`: the inhibition was inactive: 7.64%.
In the case of `O=C(OC1CN2CCC1CC2)c1cccc(Cl)c1` (centres undefined) it was inactive: 1.82%.
On to `CC(=O)NC(SC(=S)N(C)C)C(Cl)(Cl)Cl` (centres undefined), for which the inhibition is inactive: 0.46%.
Turning to `c1nnnn1CCn1cnnn1`, the inhibition was inactive: 0.46%.
Turning to `O=P(Nc1nccs1)(c1ccccc1)c1ccccc1`, the inhibition is inactive: 2.88%.
`CC(C)C(=O)NC(Sc1ccccc1)C(Cl)(Cl)Cl` (centres undefined): the inhibition was inactive: 0.58%.
In the case of `CC(=O)N1C2C3N(C(C)=O)C1C1N(C(C)=O)C(C(N1C(C)=O)N3C(C)=O)N2C(C)=O` it was inactive: -1.18%; in that of `O=[N+]([O-])c1cccc2n[nH]nc12`, inactive: 3.45%; in that of `CCc1nc2c(n1)c1c(non1O)c1c2no[n+]1[O-]`, active: 39.9%.
Then `CN(C)C(=O)OCCc1n(C)cc[n+]1C`, with inactive: 2%.
Take `CC1CCN(C(=O)Oc2c(Cl)cc(Cl)c3cccnc23)CC1`: the inhibition is inactive: 6.63%.
`CCOP(=O)(Nc1ccccc1)OCC`: the inhibition was inactive: 0.39%.
Regarding `Cc1cc(SC(NC(=O)c2ccc(F)cc2)C(Cl)(Cl)Cl)ncn1` (centres undefined), the inhibition is inactive: 2.88%.
Then `CCN(N=Nc1nonc1N)c1nonc1N`, with inactive: 1.21%.
Consider `CN1CCCC(OC(=O)C(c2ccccc2)c2ccccc2)C1` (centres undefined), for which the inhibition was inactive: 4.57%.
Then `CC(C)CC(=O)NC(Sc1ccc(Cl)cc1)C(Cl)(Cl)Cl` (centres undefined), with inactive: -0.3%.
As to `Oc1ccccc1CNc1ccccn1`, the inhibition is inactive: 2.71%.
Take `Cc1c2non([O-])c-2c(C)[n+](=O)[n+]1[O-]`: the inhibition is inactive: -1.6%.
Consider `O=C(NC(Sc1ccncn1)C(Cl)(Cl)Cl)c1ccccc1` (centres undefined), for which the inhibition is inactive: 2.45%.
As to `O=C(OC1CN2CCC1CC2)C12CC3CC(CC(C3)C1)C2` (centres undefined), the inhibition was inactive: 7.98%.
Turning to `Cc1c2c(nc3ccccc13)SC(C(Cl)Cl)C2` (centres undefined), the inhibition was inactive: 2.19%.
Consider `Cc1ccc2nc3c(c(C)c2c1)CC(C(Cl)Cl)S3` (centres undefined), for which the inhibition was inactive: 4.83%.
As for `CCN(CC)C(=S)SC(NC=O)C(Cl)(Cl)Cl` (centres undefined), the inhibition was inactive: 0.75%.
For the compound `O=[N+]([O-])c1cc([N+](=O)[O-])c(-c2ccn[nH]2)s1`, the inhibition was inactive: 3.8%.
As for `ClCCSc1nnc(-c2cccnc2)o1`, the inhibition is inactive: 1.51%.
In the case of `Cc1cc(SC(NC(=O)c2ccccc2)C(Cl)(Cl)Cl)nc(C(C)C)n1` (centres undefined) it was inactive: 1.51%; in that of `O=C(COc1ccccc1)OC1CN2CCC1CC2` (centres undefined), inactive: 0.89%.
As for `COP1(=S)c2c(C)nn(CCC#N)c2N=C(c2ccc(F)cc2)N1C` (centres undefined), the inhibition was inactive: 1.62%.
For the compound `CCC(C)N(CC(C)C)C(=S)SC(NC(C)=O)C(Cl)(Cl)Cl` (centres undefined), the inhibition was inactive: 2.38%.
As to `Clc1n[nH]nc1-c1nn[nH][15n]1`, the inhibition is inactive: -2.02%.
In the case of `O=P1(Nc2ccccn2)COc2ccccc2OC1`, the inhibition is inactive: 0.17%.
Turning to `CC1(CBr)Cn2c(nc3ccccc3c2=O)S1` (centres undefined), the inhibition was inactive: 1.19%.
Then `Cc1nn(-c2ccccc2)c2c1P(=O)(N1CCOCC1)N(C)C(c1ccccc1)=N2` (centres undefined), with inactive: 3.37%; and `O=P1(Nc2ccc(Br)cn2)COc2ccccc2OC1`, with inactive: 0.51%; and `Cc1ccc(OCC(=O)OC2CN3CCC2CC3)cc1` (centres undefined), with inactive: 3.9%.
`O=P1(Nc2ncccn2)COc2ccccc2OC1`: the inhibition is inactive: 0.47%.
Consider `CCOP1(=S)c2c(C)nn(CCC#N)c2N=C(c2ccccc2F)N1C` (centres undefined), for which the inhibition is inactive: 3.4%.
As for `O=P(Nc1nccs1)(c1ccccc1)c1nc2ccccc2s1` (centres undefined), the inhibition is inactive: 3.27%.
For `O=[N+]([O-])c1ccc2c(c1)nnn2O`, the inhibition was inactive: 3.07%.
In the case of `CCOP1(=S)c2c(C)nn(CCC#N)c2N=C(c2ccc(F)cc2)N1C` (centres undefined) it was inactive: -1.25%.
As for `Cc1cccc(OCC(=O)OC2CN3CCC2CC3)c1` (centres undefined), the inhibition is inactive: -1.15%.
In the case of `COc1cc(C2NCCC3(OCCO3)C2(C)C)cc(OC)c1OC` (centres undefined), the inhibition is inactive: 2.24%.
On to `CCOP(=O)(Nc1cccc2ccccc12)OCC`, for which the inhibition is inactive: 2.16%.
For the compound `Cc1ccc(NCCc2c([N+](=O)[O-])cc([N+](=O)[O-])cc2[N+](=O)[O-])cc1`, the inhibition was inactive: -3.71%.

The values above are taken from PubChem BioAssay AID793 (The Scripps Research Institute Molecular Screening Center, 2007).
